According to PMC6010333 (Science Advances, 2018):

How the values were obtained:
mTOR = mTOR (Homo sapiens, UniProt P42345); experiment: mTOR cell assay; format: cell-based
Solubility = format: physicochemical
Mouse brain Kp,uu = format: in vivo; details: female, nu/nu, not told, oral, 10 mg/kg
Rat brain Kp,uu = format: in vivo; details: male, Han Wistar, not told, oral, 10 mg/kg
[1] = Cynomolgus macaque brain PET; format: in vivo; details: 11C-labeled intravenous microdose

For `CN(C)CCCOc1ccc(-c2ccc3ncc4c(c3c2)n(C2CCOCC2)c(=O)n4C)cn1` [AZD0156, 8-{6-[3-(dimethylamino)propoxy]pyridin-3-yl}-3-methyl-1-(tetrahydro-2H-pyran-4-yl)-1,3-dihydro-2H-imidazo[4,5-c]quinolin-2-one, reference compound], the IC50 (mTOR) was 1.4 µM, the solid-state assessment (Solubility) was “crystalline” and the Kp (Mouse brain Kp,uu) was 0.006. For the same molecule, the Kp (Rat brain Kp,uu) was 0.027 and the “brain Cmax (%ID)” value [1] was 0.15 ± 0.036 %ID.
